According to patent publication US12349708B2, “Use and methods of 1,3-propanediol to improve taste and/or off-taste qualities” (Primient Covation LLC, priority 2019, dated 2025):

System: experienced and trained panelist
Assay: Sensorial description of energy drinks and additive solutions with propylene glycol or biologically-produced 1,3-propanediol (multi-sip-and-swallow taste method);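 also: propylene glycol or 1,3-propanediol added at 0.01, 0.1 or 1.0%, tasted by multi-sip-and-swallow in duplicate, compared with matching controls lacking either additive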
Settings: RT
[1] = 0.01% PG or PDO in 2,000 ppm sucralose and 3,338 ppm caffeine in distilled water
[2] = 0.01% PG or PDO in 10,500 ppm malic acid and 3,338 ppm caffeine in distilled water
[3] = 0.1% PG or PDO in 2,000 ppm sucralose and 3,338 ppm caffeine in distilled water
[4] = 0.1% PG or PDO in 10,500 ppm malic acid and 3,338 ppm caffeine in distilled water
[5] = 1.0% PG or PDO in 2,000 ppm sucralose and 3,338 ppm caffeine in distilled water
[6] = 1.0% PG or PDO in 10,500 ppm malic acid and 3,338 ppm caffeine in distilled water

SMILES	Sensorial Description [1]	Sensorial Description [2]	Sensorial Description (0.01% PG or PDO in 10,500 ppm malic acid and 3,338 ppm caffeine in distilled water, listed as biologically-produced 1,3-propanediol)	Sensorial Description [3]	Sensorial Description [4]	Sensorial Description (0.1% PG or PDO in 10,500 ppm malic acid and 3,338 ppm caffeine in distilled water, listed as biologically-produced 1,3-propanediol)	Sensorial Description [5]	Sensorial Description [6]
OCCCO [PDO, 1,3-propanediol]	Significantly less off-taste, slightly less or less	(Very small sip): similar to Control #135.	no differences	More off-taste note than PDO 0.01%. But less	(Very small sip): Less bitterness. (Confirmed in	less overall bitterness than the propylene glycol-containing sample	Smoky flavor across the taste, more off-flavor	(Very small sip): weak off-flavor, similar quality to
CC(O)CO (centres unmarked) [PG, propylene glycol, reference compound]	Slightly different taste quality, hard to describe	(Very small sip): similar to Control #135.		Significantly less off-taste note than Control #142,	(Very small sip): similar to Control #135.		Appeared to have slightly more off-taste but	(Very small sip): similar to Control #135, slight PG
